Assay results from US9645138B2, “Method to evaluate the tissue targeting of a molecule of interest” (IMABIOTECH, priority 2013, dated 2017).

Test: MALDI mass spectrometry imaging of mouse kidney sections after oral co-administration (Example 1)
Conditions: mouse kidney target tissue T1; positive control 100% and negative control 0% by definition

Cc1cc2c(s1)Nc1ccccc1N=C2N1CCN(C)CC1 [Olanzapine]
F2 (%): 27%
